Measured values taken from ChEMBL document CHEMBL1795329.

Test: physchem

logP: 3.27
Compound: Ic1ccccc1 [IODOBENZENE]
